The target in one experiment is CDK1/cyclin B (Homo sapiens (Human), UniProt P06493). Nature of the experiment: CDK1/cyclin B enzymatic activity assay (IMAP-FP). The conditions noted are these: 0.25 nM CDK1/cyclin B, 100 nM Tamra Histone-H1 peptide, 20 μM ATP, 120 min at room temperature; read-out: Biochemical CDK1 enzyme IC50. From the text:
CDK1/Cyclin B Enzymatic Activity Assay
A 384-well microtiter IMAP-FP™ (Molecular Devices Trade Mark Technology) endpoint assay was used for CDK1/cyclin B kinase activity measurements. The same assay was used for IC50 determination of small molecule inhibitors.

Amino acid sequences for entries named in this document (tags omitted). A change or cut given only in a name is not applied to a line headed by its entry.
UniProt P06493, whole entry, species assumed: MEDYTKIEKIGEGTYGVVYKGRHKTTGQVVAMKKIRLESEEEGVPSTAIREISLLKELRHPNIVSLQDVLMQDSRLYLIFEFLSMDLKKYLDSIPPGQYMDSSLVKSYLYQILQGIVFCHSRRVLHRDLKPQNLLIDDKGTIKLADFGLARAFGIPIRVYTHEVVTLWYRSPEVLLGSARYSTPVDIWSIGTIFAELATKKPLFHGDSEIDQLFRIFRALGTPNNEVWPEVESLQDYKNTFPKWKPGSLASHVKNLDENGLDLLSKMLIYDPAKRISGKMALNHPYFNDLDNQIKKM
UniProt P11802: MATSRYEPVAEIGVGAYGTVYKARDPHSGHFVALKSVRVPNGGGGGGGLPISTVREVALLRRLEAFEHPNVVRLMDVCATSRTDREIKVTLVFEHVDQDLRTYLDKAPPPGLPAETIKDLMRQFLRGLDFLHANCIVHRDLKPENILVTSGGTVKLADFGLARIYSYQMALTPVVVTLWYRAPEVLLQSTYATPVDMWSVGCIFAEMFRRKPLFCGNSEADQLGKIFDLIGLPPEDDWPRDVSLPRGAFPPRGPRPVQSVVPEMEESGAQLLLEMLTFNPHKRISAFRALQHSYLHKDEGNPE

A further experiment addresses CDK4/cyclin D1 (Homo sapiens (Human), UniProt P11802). Nature of the experiment: CDK4/cyclin D1 enzymatic activity assay (TR-FRET, phosphorylation of pRb at Ser780). The experiment is classed as biochemical. How it is done: CDK4/Cyclin D1 Enzymatic Activity Assay
An assay for monitoring CDK4/cyclin D1-catalyzed phosphorylation of pRb at the Ser780 site was performed using TR-FRET in a 384-well format, and was used for IC50 determination and kinetic analysis. […] 3 μM ATP was added last to initiate the reaction. The reaction was quenched with 10 μL of 240 mM EDTA-Na (pH 8.0) after 60 min incubation at 22° C.
Human CDK4/cyclin D1 was expressed in Sf21 cells via baculovirus infection.
Background: Time-resolved FRET reads energy transfer from a long-lived donor to a nearby acceptor.

From patent US8957074B2 (Novartis AG, priority 2010, dated 2015) come the findings set out here.

Structures are written as SMILES.

Broadly, the IC50 is the midpoint of a concentration-inhibition curve.

For the molecule `CN(C)C(=O)c1cc2cnc(Nc3ccc(C(=O)N4CCC5CCC(C4)N5)cn3)nc2n1C1CCCC1` (racemic) [Example 69, 7-Cyclopentyl-2-[5-(3,9-diaza-bicyclo[4.2.1]nonane-3-carbonyl)-pyridin-2-ylamino]-7H-pyrrolo[2,3-d]pyrimidine-6-carboxylic acid dimethylamide], at CDK1/cyclin B, the IC50 is over 15 µM.
For the molecule `CN(C)C(=O)c1cc2cnc(Nc3ccc(C(=O)N4CC5CCCC(C4)N5)cn3)nc2n1C1CCCC1` [Example 52, 7-Cyclopentyl-2-[5-(3,9-diaza-bicyclo[3.3.1]nonane-3-carbonyl)-pyridin-2-ylamino]-7H-pyrrolo[2,3-d]pyrimidine-6-carboxylic acid dimethylamide], at CDK1/cyclin B, the IC50 was over 15 µM.
For `CN(C)C(=O)c1cc2cnc(Nc3ccc(C(=O)N4CC5CCC(C4)N5)cn3)nc2n1C1CCC1` [Example 55, 7-Cyclobutyl-2-[5-(3,8-diaza-bicyclo[3.2.1]octane-3-carbonyl)-pyridin-2-ylamino]-7H-pyrrolo[2,3-d]pyrimidine-6-carboxylic acid dimethylamide], the figures for the IC50 against CDK4/cyclin D1 and at CDK1/cyclin B were 14 to 36 nM and over 15 µM, respectively.
